Data taken from ChEMBL document CHEMBL1129627, “Nonlinear quantitative structure-activity relationship for the inhibition of dihydrofolate reductase by pyrimidines” (J Med Chem, 1996).
pKi: −log10 of the molar value.

Target: T1, Dihydrofolate reductase (Escherichia coli, UniProt P0ABQ4)
T1 sequence (P0ABQ4 whole entry): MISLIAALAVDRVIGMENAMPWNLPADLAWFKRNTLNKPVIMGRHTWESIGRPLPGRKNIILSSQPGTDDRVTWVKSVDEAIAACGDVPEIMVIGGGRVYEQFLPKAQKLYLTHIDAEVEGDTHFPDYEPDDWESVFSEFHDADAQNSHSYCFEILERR

Compound: COc1cc(CC2CN=C(N)N=C2N)cc(OC)c1N(C)C (stereo unspecified)
- pKi: 7.71
